Experimental data: patent publication US12613236B2, “Lung fibrosis model and methods of using the same” (DUKE UNIVERSITY, priority 2019, dated 2026)

Tests used:
[1] = test system: AEC2s in alveolar organoids; experiment: Alveolar organoid culture treated with Nutlin-3a, Ki67 and AGER immunostaining; type: cell-based, mouse; settings: organoids treated from day 7 until harvest on day 15; 2 μm; compared with controls (DMSO)
Experimental: Alveolar organoid culture was performed as described previously (Barkauskas et al., 2013, J. Clin. Invest. 123:1118-1123). Briefly, lineage-labeled AEC2s (1-3×10^3) from Sftpc-GFP or Sftpc-CreER; R26R-tdTomato mice treated with Tmx were sorted by FACS, and PDGFRα+(5×10^4) fibroblasts were resuspended in MTEC/Plus and mixed with an equal amount of growth-factor-reduced Matrigel (Corning, 354230). The medium was changed every other day.

[2] = test system: TP53 signaling; experiment: Nutlin-3a treatment after bleomycin injury in Sftpc-CreER; R26R-tdTomato mice, AGER immunostaining; settings: bleomycin-injured mice; 20 mg kg-1 d-1 intraperitoneal, days 8-18 after injury; tissue collected day 20; compared with DMSO

## COc1ccc(C2=N[C@@H](c3ccc(Cl)cc3)[C@@H](c3ccc(Cl)cc3)N2C(=O)N2CCNC(=O)C2)c(OC(C)C)c1 [Nutlin-3a]
[1]
  number and intensity of AGER+ cells: an increase in the number and intensity of AGER+ cells
  number of Ki67+ proliferating cells: a decrease in the number of Ki67+ proliferating cells
[2]
  differentiation of Sftpc-tdt+ cells into AEC1s (AGER+ proportion of total Sftpc-tdt+ cells): significantly higher differentiation of Sftpc-tdt+ cells into AEC1s
